These results are taken from patent publication US20250074891A1 (Anaxis Pharma Pty Ltd., priority 2021, published 2025).

Amino acid sequences for entries named in this document (tags omitted).
UniProt Q8NB16, whole entry: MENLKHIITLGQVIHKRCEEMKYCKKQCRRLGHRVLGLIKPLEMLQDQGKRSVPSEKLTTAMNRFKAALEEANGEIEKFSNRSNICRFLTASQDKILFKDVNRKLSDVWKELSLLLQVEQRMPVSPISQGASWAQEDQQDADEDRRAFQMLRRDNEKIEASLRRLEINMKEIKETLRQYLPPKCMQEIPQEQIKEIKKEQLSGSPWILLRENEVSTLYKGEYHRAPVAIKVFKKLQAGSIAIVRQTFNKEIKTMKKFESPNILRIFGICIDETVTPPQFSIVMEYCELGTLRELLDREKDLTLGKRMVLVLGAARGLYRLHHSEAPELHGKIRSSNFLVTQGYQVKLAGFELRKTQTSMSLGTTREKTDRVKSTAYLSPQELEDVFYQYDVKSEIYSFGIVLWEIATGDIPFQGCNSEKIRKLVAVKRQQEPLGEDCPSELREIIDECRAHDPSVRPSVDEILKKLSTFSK

The subject of test [1] is U937 human histiocytic leukemia cell line. Put plainly: Cellular assay: inhibition of TSQ induced necroptosis (CellTitre-Glo). Conditions: read-out: Inhibition of TSQ-induced necroptosis (IC50 cell-based assay); U937 cells, TSQ cocktail, 48 hours, Table 38.
The target of another test is MLKL (full length) (Homo sapiens (Human), UniProt Q8NB16). Put plainly: KINOMEscan binding assay, MLKL (full length). Conditions: read-out: MLKL (KD), Table 36.
The subject of the next test is U937 cells. Put plainly: Counter screen: cell viability without TSQ cocktail (off-target effect). The following applies: read-out: Off-target effect (IC50 cell-based assay), Table 38. (The purpose of a counterscreen is to sort out artefacts and off-target activity.)
In a further test the target is endogenous MLKL in U937 (Homo sapiens (Human), UniProt Q8NB16). Put plainly: Degradation assay: degradation of endogenous MLKL in human cells (Western blot). The following applies: read-out: Degradation of endogenous MLKL in U937 (DC50 cell-based assay in μM), 24 h incubation. A general note: A western blot detects proteins with antibodies after separation by electrophoresis.

As usually defined, the IC50 is the concentration at which inhibition is half-maximal. A word on the Kd: it is the constant that tells how readily two partners part at equilibrium. For the compound `CCS(=O)(=O)Nc1ccc(-c2n[nH]c(Nc3ccnc(OCCNC(=O)COc4cccc5c4C(=O)N(C4CCC(=O)NC4=O)C5=O)c3)c2C(N)=O)cc1` (stereo not shown), the half-maximal inhibitory concentration (IC50) (in test [1]; in the test with U937 cells) was over 10 µM in each case. Also, on MLKL (full length), the Kd is under 0.01 µM.

By DC50 is commonly meant the concentration giving 50% degradation. `CCS(=O)(=O)Nc1ccc(-c2n[nH]c(Nc3ccc(C(=O)NCCC(=O)N[C@H](C(=O)N4C[C@H](O)C[C@H]4C(=O)NCc4ccc(-c5scnc5C)cc4)C(C)(C)C)cn3)c2C(N)=O)cc1O[C@@H](C)c1ccc(F)cc1`: the IC50 in test [1] was 1 to 10 µM; with U937 cells it was over 10 µM. Moreover, the Kd on MLKL (full length) was under 0.01 µM. The DC50 on endogenous MLKL in U937 fell in the range of 1 to 10 µM.
